Only a part is listed here, and it is no random draw. Some tests of the compounds listed are not included; inactive here does not mean inactive elsewhere. Calls of active or inactive are those of the source. Cut-off read from the data, not from the text of the source: active = inhibition above about 40%.
target: Induced myeloid leukemia cell differentiation protein Mcl-1 (Homo sapiens) (UniProt Q07820); assay: inhibitors of Bim peptide binding to Mcl-1, primary screen, biochemical, bead-based flow cytometry, multiplex (AID 1009); settings: Bim peptide-Mcl-1 binding, at 10 µM, hits give high values;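 note: 0% = no compound tracer wells and 100% = peptide blocker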

Protein sequences, listed by entry. Tags and fused reporters are not part of them.
UniProt Q07820, whole entry: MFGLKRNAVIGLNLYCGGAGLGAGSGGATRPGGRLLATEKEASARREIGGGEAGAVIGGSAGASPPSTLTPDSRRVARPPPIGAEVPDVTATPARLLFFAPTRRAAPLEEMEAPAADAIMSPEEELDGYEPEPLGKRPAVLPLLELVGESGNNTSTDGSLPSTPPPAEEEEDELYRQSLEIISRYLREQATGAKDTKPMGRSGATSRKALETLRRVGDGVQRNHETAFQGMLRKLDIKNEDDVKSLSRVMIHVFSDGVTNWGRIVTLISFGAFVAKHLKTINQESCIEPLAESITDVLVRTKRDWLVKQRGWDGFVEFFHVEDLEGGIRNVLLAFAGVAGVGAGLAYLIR

Row | SMILES | inhibition
1 | O=C(OC1CN2CCC1CC2)C(CO)(c1ccccc1)c1ccccc1 (centres undefined) | inactive: -2%
2 | CN(C)c1cccc(C(=O)NCC2(N(C)C)CCCCC2)c1 | inactive: -5%
3 | COc1cccc(C(=O)NCC2(N3CCCCC3)CCCCC2)c1 | inactive: 0%
4 | Cc1ccccc1C(=O)NCC1(N2CCCCC2)CCCCC1 | inactive: 0%
5 | CN(C)C1CCCC1OC(=O)C(O)(c1ccccc1)c1ccccc1 (centres undefined) | inactive: -3%
6 | C=CCN1CCN(CCOC(=O)C(O)(c2ccccc2)c2ccccc2)CC1 | inactive: 0%
7 | CCN1CCCC(OC(=O)C2(O)c3ccccc3C=Cc3ccccc32)C1 (centres undefined) | inactive: -6%
8 | O=C(NCC1(N2CCCCC2)CCCCC1)c1cc([N+](=O)[O-])ccc1Cl | inactive: -4%
9 | CC(C)N1C(=O)CC2(CCN(CCOC(=O)C(O)(c3ccccc3)c3ccccc3)CC2)C1=O | inactive: 0%
